Experimental data: patent US20260384438A1, “PYRROLOPYRIMIDINE CARBOXAMIDES” (published 2026)

Chains of the proteins cited; added tags and fusions are not shown. Residues count along the entry.
UniProt P30291, whole entry: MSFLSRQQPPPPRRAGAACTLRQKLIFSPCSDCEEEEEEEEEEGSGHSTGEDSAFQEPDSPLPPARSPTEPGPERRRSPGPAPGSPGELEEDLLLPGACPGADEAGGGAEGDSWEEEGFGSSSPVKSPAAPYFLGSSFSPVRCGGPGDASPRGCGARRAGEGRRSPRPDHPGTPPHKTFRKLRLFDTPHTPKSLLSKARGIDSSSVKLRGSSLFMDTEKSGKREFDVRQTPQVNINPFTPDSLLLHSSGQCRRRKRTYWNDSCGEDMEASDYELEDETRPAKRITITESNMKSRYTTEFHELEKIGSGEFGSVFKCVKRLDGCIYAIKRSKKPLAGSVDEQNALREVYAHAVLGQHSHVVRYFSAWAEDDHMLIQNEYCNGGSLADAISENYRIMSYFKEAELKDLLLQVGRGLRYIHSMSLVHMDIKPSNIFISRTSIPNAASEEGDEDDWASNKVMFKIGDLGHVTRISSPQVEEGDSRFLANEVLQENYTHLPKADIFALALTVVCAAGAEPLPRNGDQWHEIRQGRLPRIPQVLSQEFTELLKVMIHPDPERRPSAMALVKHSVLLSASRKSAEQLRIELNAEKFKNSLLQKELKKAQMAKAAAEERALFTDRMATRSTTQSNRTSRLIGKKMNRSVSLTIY
UniProt P54753, 34-998 limits assumed: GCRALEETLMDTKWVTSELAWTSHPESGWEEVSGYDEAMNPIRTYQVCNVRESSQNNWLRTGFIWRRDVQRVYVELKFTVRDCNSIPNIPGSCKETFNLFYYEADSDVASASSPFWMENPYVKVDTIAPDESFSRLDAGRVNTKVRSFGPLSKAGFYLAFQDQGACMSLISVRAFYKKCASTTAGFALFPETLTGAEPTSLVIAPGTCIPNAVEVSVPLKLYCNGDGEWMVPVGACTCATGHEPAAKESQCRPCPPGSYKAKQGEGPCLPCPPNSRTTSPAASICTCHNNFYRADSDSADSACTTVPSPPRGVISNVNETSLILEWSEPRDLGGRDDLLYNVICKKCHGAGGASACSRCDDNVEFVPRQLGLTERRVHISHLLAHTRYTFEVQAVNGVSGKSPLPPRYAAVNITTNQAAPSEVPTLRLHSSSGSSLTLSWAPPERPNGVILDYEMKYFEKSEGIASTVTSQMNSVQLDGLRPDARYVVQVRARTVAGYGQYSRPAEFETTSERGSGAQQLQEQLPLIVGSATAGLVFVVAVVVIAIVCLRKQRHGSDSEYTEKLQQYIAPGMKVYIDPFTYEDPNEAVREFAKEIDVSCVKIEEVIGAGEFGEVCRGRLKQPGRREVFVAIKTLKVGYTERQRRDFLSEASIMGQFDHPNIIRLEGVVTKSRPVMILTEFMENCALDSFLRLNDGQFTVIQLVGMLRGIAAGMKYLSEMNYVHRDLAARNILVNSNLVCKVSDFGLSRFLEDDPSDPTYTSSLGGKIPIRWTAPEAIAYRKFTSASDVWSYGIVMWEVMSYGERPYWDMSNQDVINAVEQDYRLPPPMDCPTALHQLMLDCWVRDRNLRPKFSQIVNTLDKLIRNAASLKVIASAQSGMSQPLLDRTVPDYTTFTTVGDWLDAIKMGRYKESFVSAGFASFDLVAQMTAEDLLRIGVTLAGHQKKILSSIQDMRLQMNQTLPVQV

Tests used:
WEE1 = WEE1 (Homo sapiens, UniProt P30291); assay: NanoBRET target engagement in HEK293T cells, WEE1; settings: read-out: WEE1 INHIBITION IC50, 2 h
EPHB3 = EPHB3 (Homo sapiens, UniProt P54753); assay: NanoBRET target engagement in HEK293T cells, EPHB3; settings: read-out: EPHB3 INHIBITION IC50, 2 h
[1] = Aqueous (thermodynamic) solubility, pH 7.4; settings: 0.1 M phosphate buffer pH 7.4, 24 h, 25 °C
Log D octanol/PBS pH 7.4 = settings: octanol/PBS pH 7.4, 1 μM

Row | SMILES | IC50 (WEE1) [µM] | IC50 (EPHB3) [µM] | Solubility pH 7.4 [1] [μM] | LogD (Log D octanol/PBS pH 7.4)
1 | Cc1ncc2c(C(N)=O)c(N)n(-c3c(C)ccc(O)c3C)c2n1 | > 9.97 | > 9.97 |  | 
2 | Cc1ncc2c(C(N)=O)c(N)n(-c3c(C)ccc(O)c3C)c2n1 (single isomer, unassigned) [1, Isomer1] |  |  | 1263 | 1.35
3 | Cc1ncc2c(C(N)=O)c(N)n(-c3c(C)ccc(O)c3C)c2n1 (single isomer, unassigned) [1, Isomer2] |  |  | 910 | 1.38
4 | Cc1ccc(O)c(C)c1-n1c(N)c(C(N)=O)c2cnc(N3CCC(F)(F)C3)nc21 (single isomer, unassigned) [10, Isomer1] |  |  | 18 | 3.04
5 | Cc1ccc(O)c(C)c1-n1c(N)c(C(N)=O)c2cnc(N3CCC(F)(F)C3)nc21 (single isomer, unassigned) [10, Isomer2] |  |  | 34 | 2.93
6 | C=Cc1ncc2c(C(N)=O)c(N)n(-c3c(C)ccc(O)c3C)c2n1 (single isomer, unassigned) [17, Isomer1] |  |  | >1000 | 2.12
7 | C=Cc1ncc2c(C(N)=O)c(N)n(-c3c(C)ccc(O)c3C)c2n1 (single isomer, unassigned) [17, Isomer2] |  |  | >1000 | 2.07
8 | Cc1ccc(O)c(C)c1-n1c(N)c(C(N)=O)c2cnc(N3CCOCC3)nc21 (single isomer, unassigned) [47, Isomer1] |  |  | >1000 | 1.92
9 | Cc1ccc(O)c(C)c1-n1c(N)c(C(N)=O)c2cnc(N3CCOCC3)nc21 (single isomer, unassigned) [47, Isomer2] |  |  | >944 | 1.88
10 | Cc1ccc(O)c(C)c1-n1c(N)c(C(N)=O)c2cnc(C(C)C)nc21 (single isomer, unassigned) [48, Isomer1] |  |  | >1000 | 2.42
11 | Cc1ccc(O)c(C)c1-n1c(N)c(C(N)=O)c2cnc(C(C)C)nc21 (single isomer, unassigned) [48, Isomer2] |  |  | >1000 | 2.39
12 | CCc1ncc2c(n1)c(-c1cc(O)ccc1C)c(N)n2C(N)=O (single isomer, unassigned) [49, Isomer1] |  |  | >995 | 1.79
13 | CCc1ncc2c(n1)c(-c1cc(O)ccc1C)c(N)n2C(N)=O (single isomer, unassigned) [49, Isomer2] |  |  | >1000 | 1.81
14 | Cc1ccc(O)c(C)c1-n1c(N)c(C(N)=O)c2cnc(C3CC3)nc21 (single isomer, unassigned) [50, Isomer1] |  |  | >994 | 2.3
15 | Cc1ccc(O)c(C)c1-n1c(N)c(C(N)=O)c2cnc(C3CC3)nc21 (single isomer, unassigned) [50, Isomer2] |  |  | >595 | 2.6
16 | Cc1cc2c(cn1)c(C(N)=O)c(N)n2-c1c(C)ccc(O)c1C (single isomer, unassigned) [52, Isomer1] |  |  | >1000 | 1.78
17 | Cc1cc2c(cn1)c(C(N)=O)c(N)n2-c1c(C)ccc(O)c1C (single isomer, unassigned) [52, Isomer2] |  |  | >1000 | 1.69
18 | Cc1cc2c(nn1)c(C(N)=O)c(N)n2-c1c(C)ccc(O)c1C (single isomer, unassigned) [53, Isomer1] |  |  | 797 | 1.9
19 | Cc1cc2c(nn1)c(C(N)=O)c(N)n2-c1c(C)ccc(O)c1C (single isomer, unassigned) [53, Isomer2] |  |  | >1000 | 1.8
20 | Cc1ccc(O)c(C)c1-n1c(N)c(C(N)=O)c2cn(C)c(=O)cc21 (single isomer, unassigned) [56, Isomer1] |  |  | >1000 | 1
21 | Cc1ccc(O)c(C)c1-n1c(N)c(C(N)=O)c2cn(C)c(=O)cc21 (single isomer, unassigned) [56, Isomer2] |  |  | >1000 | 0.928
22 | Cc1ccc(O)c(C)c1-n1c(N)c(C(N)=O)c2cnc(Cl)nc21 (single isomer, unassigned) [57, Isomer1] |  |  | >918 | 1.87
23 | Cc1ccc(O)c(C)c1-n1c(N)c(C(N)=O)c2cnc(Cl)nc21 (single isomer, unassigned) [57, Isomer2] |  |  | >941 | 1.76
24 | Cc1ccc(O)c(C)c1-n1c(N)c(C(N)=O)c2cnc(C(F)(F)F)nc21 (single isomer, unassigned) [62, Isomer1] |  |  | 360 | 2.3
25 | Cc1ccc(O)c(C)c1-n1c(N)c(C(N)=O)c2cnc(C(F)(F)F)nc21 (single isomer, unassigned) [62, Isomer2] |  |  | 447 | 2.2

Row | SMILES | IC50 (WEE1) [µM] | IC50 (EPHB3) [µM] | Solubility pH 7.4 [1] [μM] | LogD (Log D octanol/PBS pH 7.4)
26 | Cc1ccc(O)c(C)c1-n1c(N)c(C(N)=O)c2cnc(N3CCN(C)CC3)nc21 (single isomer, unassigned) [70, Isomer1] |  |  | 378 | 1.42
27 | Cc1ccc(O)c(C)c1-n1c(N)c(C(N)=O)c2cnc(N3CCN(C)CC3)nc21 (single isomer, unassigned) [70, Isomer2] |  |  | 236 | 1.48
28 | Cc1ccc(O)c(C)c1-n1c(N)c(C(N)=O)c2cnc(C3CCC3)nc21 (single isomer, unassigned) [71, Isomer1] |  |  | 115 | 2.62
29 | Cc1ccc(O)c(C)c1-n1c(N)c(C(N)=O)c2cnc(C3CCC3)nc21 (single isomer, unassigned) [71, Isomer2] |  |  | 180 | 2.61
30 | Cc1ncc2c(C(N)=O)c(N)n(-c3c(Cl)ccc(O)c3C)c2n1 (single isomer, unassigned) [73, Isomer1] |  |  | 118 | 1.68
31 | Cc1ncc2c(C(N)=O)c(N)n(-c3c(Cl)ccc(O)c3C)c2n1 (single isomer, unassigned) [73, Isomer2] |  |  | 136 | 1.68
32 | Cc1ccc(O)c(C)c1-n1c(N)c(C(N)=O)c2cnc(N3CCCC3)nc21 (single isomer, unassigned) [74, Isomer1] |  |  | 46 | 2.71
33 | Cc1ccc(O)c(C)c1-n1c(N)c(C(N)=O)c2cnc(N3CCCC3)nc21 (single isomer, unassigned) [74, Isomer2] |  |  | 11 | 2.79
34 | Cc1ccc(O)c(C)c1-n1c(N)c(C(N)=O)c2cnc(N3CCC3)nc21 (single isomer, unassigned) [75, Isomer1] |  |  | >1000 | 1.87
35 | Cc1ccc(O)c(C)c1-n1c(N)c(C(N)=O)c2cnc(N3CCC3)nc21 (single isomer, unassigned) [75, Isomer2] |  |  | 361 | 2.06
36 | CCn1cc2c(C(N)=O)c(N)n(-c3c(C)ccc(O)c3C)c2nc1=O (single isomer, unassigned) [79, Isomer1] |  |  | 439 | 1.55
37 | CCn1cc2c(C(N)=O)c(N)n(-c3c(C)ccc(O)c3C)c2nc1=O (single isomer, unassigned) [79, Isomer2] |  |  | >1000 | 1.24
38 | CCOc1ncc2c(C(N)=O)c(N)n(-c3c(C)ccc(O)c3C)c2n1 (single isomer, unassigned) [83, Isomer1] |  |  | 871 | 2
39 | CCOc1ncc2c(C(N)=O)c(N)n(-c3c(C)ccc(O)c3C)c2n1 (single isomer, unassigned) [83, Isomer2] |  |  | >1000 | 2
40 | Cc1ncc2c(C(N)=O)c(N)n(-c3c(Cl)ccc(O)c3Cl)c2n1 (single isomer, unassigned) [85, Isomer1] |  |  | 611 | 0.963
41 | Cc1ncc2c(C(N)=O)c(N)n(-c3c(Cl)ccc(O)c3Cl)c2n1 (single isomer, unassigned) [85, Isomer2] |  |  | 760 | 0.973
42 | Cc1ncc2c(C(N)=O)c(N)n(-c3c(Br)ccc(O)c3C)c2n1 (single isomer, unassigned) [86, Isomer1] |  |  | 84 | 1.69
43 | Cc1ncc2c(C(N)=O)c(N)n(-c3c(Br)ccc(O)c3C)c2n1 (single isomer, unassigned) [86, Isomer2] |  |  | 94 | 1.71
44 | CNc1ncc2c(C(N)=O)c(N)n(-c3c(C)ccc(O)c3C)c2n1 (single isomer, unassigned) [92, Isomer1] |  |  | >1000 | 1.49
45 | CNc1ncc2c(C(N)=O)c(N)n(-c3c(C)ccc(O)c3C)c2n1 (single isomer, unassigned) [92, Isomer2] |  |  | >1000 | 1.35
46 | CC#Cc1ncc2c(C(N)=O)c(N)n(-c3c(C)ccc(O)c3C)c2n1 (single isomer, unassigned) [93, Isomer1] |  |  | >1000 | 1.87
47 | CC#Cc1ncc2c(C(N)=O)c(N)n(-c3c(C)ccc(O)c3C)c2n1 (single isomer, unassigned) [93, Isomer2] |  |  | >1000 | 1.76
48 | Cc1ccc(O)c(C)c1-n1c(N)c(C(N)=O)c2cnc(N3CC(C)(C)C3)nc21 (single isomer, unassigned) [135, Isomer1] |  |  | 106 | 2.75
49 | Cc1ccc(O)c(C)c1-n1c(N)c(C(N)=O)c2cnc(N3CC(C)(C)C3)nc21 (single isomer, unassigned) [135, Isomer2] |  |  | 84 | 2.69
